The results in this text go back to patent publication US9573964B2, “Oxygen linked pyrimidine derivatives” (CTI BIOPHARMA CORP., priority 2005, dated 2017).

Protein sequences, listed by entry. Tags and fused reporters are not part of them. Residues count along the entry.
UniProt P36888, 27-993: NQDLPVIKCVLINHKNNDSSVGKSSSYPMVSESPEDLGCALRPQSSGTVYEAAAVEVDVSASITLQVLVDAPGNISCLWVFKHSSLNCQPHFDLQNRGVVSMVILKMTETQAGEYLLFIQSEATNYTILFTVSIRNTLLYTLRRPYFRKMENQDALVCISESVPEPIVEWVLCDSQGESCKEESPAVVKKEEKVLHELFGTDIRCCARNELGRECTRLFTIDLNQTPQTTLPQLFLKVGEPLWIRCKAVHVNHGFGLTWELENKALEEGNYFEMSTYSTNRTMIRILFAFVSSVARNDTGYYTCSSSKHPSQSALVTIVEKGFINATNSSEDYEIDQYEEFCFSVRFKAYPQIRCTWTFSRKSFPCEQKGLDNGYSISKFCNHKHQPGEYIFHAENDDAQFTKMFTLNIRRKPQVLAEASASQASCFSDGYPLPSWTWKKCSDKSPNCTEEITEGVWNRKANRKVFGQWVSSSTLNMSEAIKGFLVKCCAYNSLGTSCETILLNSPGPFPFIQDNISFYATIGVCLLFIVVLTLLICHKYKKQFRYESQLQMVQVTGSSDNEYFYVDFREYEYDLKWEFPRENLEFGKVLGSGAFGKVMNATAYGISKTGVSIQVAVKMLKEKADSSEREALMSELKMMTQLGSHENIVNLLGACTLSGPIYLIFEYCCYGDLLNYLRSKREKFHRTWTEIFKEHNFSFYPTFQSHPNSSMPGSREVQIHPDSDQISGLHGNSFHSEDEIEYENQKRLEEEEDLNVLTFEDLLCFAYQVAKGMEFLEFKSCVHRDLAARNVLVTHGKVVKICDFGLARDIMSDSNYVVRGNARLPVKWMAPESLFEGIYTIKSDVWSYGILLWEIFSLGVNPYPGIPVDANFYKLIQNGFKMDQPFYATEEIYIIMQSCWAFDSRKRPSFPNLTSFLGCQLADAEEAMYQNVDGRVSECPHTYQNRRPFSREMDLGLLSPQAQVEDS

Structures are written as SMILES.

In this experiment the target is T1, FLT3 (Homo sapiens, UniProt P36888).
T1 construct: purchased Invitrogen PV3182
Put plainly: In vitro kinase activity assay (PKLight), FLT3. In kind it is biochemical. The protocol:
The recombinant enzymes (CDK2/CyclinA, FLT3, JAK2 and JAK2 V617F) were purchased from Invitrogen (Cat #PV3267, 3182, 4210 and 4347 respectively). All assays were carried out in 384-well white microtiter plates using the PKLight assay system from Cambrex (East Rutherford, N.J.). This assay platform is essentially a luminometric assay for the detection of ATP in the reaction using a luciferase-coupled reaction. For CDK2/Cyclin A assay, the reaction mixture consisted of the following components in 25 μL assay buffer (50 mM Hepes pH 7.5, 10 mM MgCl2, 5 mM MnCl2, 5 mM BGP, 1 mM DTT, 0.1 mM sodium orthovanadate), 1.4 μg/mL of CDK2/Cyclin A complex, 0.5 μM of RbING substrate (Invitrogen, Cat #PV2939) and 0.5 μM of ATP. The compounds were tested at 8 concentrations prepared from 4-fold serial dilution starting at 10 μM. The reaction was incubated at room temperature for 2 hr. 13 μL of PKLight ATP detection reagent was added and the reaction was incubated for 10 min. Luminescence signals were detected on a multi-label plate reader (Victor^2 V 1420, Perkin-Elmer). The other kinase assays were identical except for the following differences in reagents. For FLT3 assays, the reaction contained 2.0 μg/mL FLT3 enzyme, 5 μM of poly(Glu,Tyr) substrate (Sigma, Cat #P0275) and 4 μM of ATP. […]

Broadly, the IC50 is the concentration that gives 50% inhibition. A low value points to higher potency. `C1=C/COCc2cc(ccc2OCCN2CCCC2)Nc2nccc(n2)-c2cccc(c2)COC/1` [Compound 13] displayed an IC50 of at most 1 µM.
